This assay concerns the target CB2 (Homo sapiens, UniProt P34972). The assay is described as follows: In vitro competitive binding assay, [3H]CP55,940 displacement, hCB2 membranes. Also on record: purchased PerkinElmer; host or cells: CHO-K1 cells, stably transfected (membrane preparation). The settings on record: CHO-K1 membranes with human CB2, 1.4 nM [3H]CP55,940, Cheng-Prusoff, three experiments in triplicates; read-out: KiCB2. The protocol: The following test was carried out in order to determine the binding affinity of the compounds of formula I towards CB2 and CB1: […]
Competitive binding reactions were initiated by the addition of a membrane preparation obtained from CHO-K1 cells stably transfected with human CB1 and CB2, respectively, from PerkinElmer (0.5 pig/tube for hCB1 and hCB2) into incubation tubes. As displacer, 1.4 nM [^3H]CP55,940 (PerkinElmer) was used and 6 to 10 concentrations (ranging from 1 pM to 10 μM) of displacing ligand (compound to test) in assay buffer (50 mM TRIS, 1 mM EDTA, 3 mM MgCl2 and 0.05% bovine serum albumin, pH adjusted to 7.4) were added. Nonspecific binding was defined by the presence of 5 μM WIN-55212-2. After incubation at 30° C. for 90 min reactions were terminated by the addition of 3 mL ice cold assay buffer followed by rapid vacuum filtration through a Whatman GF/C filter (pre-soaked for 2 h in 0.05% polyethylenimine in water) and washed twice with 3 mL ice cold assay buffer. The bound activity was counted in a Beckman LS 6500 Liquid Scintillation Counter after adding 3 mL scintillation cocktail (Ultima Gold, Perkin Elmer) and thorough shaking. For each mean value three experiments, each in triplicates, were performed. K, values were determined with the equation from Cheng-Prusoff.

By UniProt entry, the sequences of proteins in these tests, tags left out.
UniProt P34972, whole entry: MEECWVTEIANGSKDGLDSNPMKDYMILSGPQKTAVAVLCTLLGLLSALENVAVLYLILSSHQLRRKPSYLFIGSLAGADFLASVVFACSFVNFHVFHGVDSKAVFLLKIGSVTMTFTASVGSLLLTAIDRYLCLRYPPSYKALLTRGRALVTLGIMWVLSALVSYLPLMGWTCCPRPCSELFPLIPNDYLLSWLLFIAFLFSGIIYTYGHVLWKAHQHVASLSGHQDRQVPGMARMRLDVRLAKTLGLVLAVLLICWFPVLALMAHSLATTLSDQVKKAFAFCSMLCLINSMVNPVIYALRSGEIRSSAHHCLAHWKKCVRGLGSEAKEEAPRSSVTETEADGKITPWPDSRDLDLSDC

One compound from patent publication US20170174632A1, “4-OXO-1, 4-DIHYDROQUINOLINE-3-CARBOXAMIDE AS SELECTIVE LIGAND FOR CANNABINOID RECEPTOR 2 FOR DIAGNOSIS AND THERAPY” (priority 2014, published 2017) can be followed below.

For the compound `CCOCCn1cc(C(=O)NC23CC4CC(CC(C4)C2)C3)c(=O)c2cccc(OC)c21` [RS-016, N-(1-adamantyl)-1-(2-ethoxyethyl)-8-methoxy-4-oxo-1,4-dihydroquinoline-3-carboxamide], the Ki was 0.7 ± 0.6 nM.
